# Experimental data published in PubChem BioAssay AID652154 (Broad Institute, 2013).
# The entries are a selection whose mix differs from that of the whole data set. Some of these compounds have results that are not shown, active ones among them. The source made the active and inactive calls.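 Rule for the calls: active = mean replicate inhibition at least 60% with every replicate also reaching 60%; inconclusive = only one of the two criteria is met; inactive = mean below 60% and not all replicates reaching 60%.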
# Test: PAX8 transcriptional activity inhibition in RMG-I – RMG-I cells, luciferase, single concentration, primary screen (AID 652154);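 note: luciferase light reporting Pax8 driven TPO promoter activity; plate controls were median of neutral control wells for no effect and mitoxantrone controls for full effect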
# Settings: RMG-I TPO-luciferase reporter, SteadyGlo, 24 h; at 12.6 µM; hits give high values
row,SMILES,inhibition
1,CN(C)C1CCCC1OC(=O)C(O)(c1ccccc1)c1ccccc1 (stereo not drawn),inactive: 11.6%
2,CN(C)c1ccc(C(=O)NCC2(N(C)C)CCCCC2)cc1,inactive: -24.5%
3,Cc1ccccc1C(=O)NCC1(N2CCCCC2)CCCCC1,inactive: 3.86%
4,COc1ccc(C(=O)NCC2(N(C)C)CCCCC2)cc1,inactive: -25.5%
5,O=C(NCC1(N2CCCCC2)CCCCC1)c1cccc(Br)c1,inactive: 19.7%
6,Cc1cc(C(=O)NCC2(N3CCCCC3)CCCCC2)ccc1[N+](=O)[O-],inactive: -15.1%
7,CCN1CCCC(OC(=O)C2(O)c3ccccc3C=Cc3ccccc32)C1 (stereo not drawn),inactive: 20.5%
8,O=C(NCC1(N2CCCCC2)CCCCC1)c1cc(F)c(F)cc1Cl,inactive: 8.7%
9,C=CCN1CCN(CCOC(=O)C(O)(c2ccccc2)c2ccccc2)CC1,inactive: 20.2%
10,CN1[C@@H]2CC[C@H]1CC(OC(=O)C(O)(c1ccccc1)c1ccccc1)C2 (stereo partly drawn),inactive: -108%
11,O=C(NCC1(N2CCCCC2)CCCCC1)c1cc([N+](=O)[O-])ccc1Cl,inactive: 6.73%
12,Cc1ccc(C(=O)NCC2(N3CCCCC3)CCCCC2)cc1,inactive: 21.4%
13,COc1cc(SC)ccc1C(=O)NCC1(N(C)C)CCCCC1,inactive: 8.54%
14,CCN(CC)CC(C)C(C)OC(=O)C(O)(c1ccccc1)c1ccccc1 (stereo not drawn),inactive: 1.09%
15,O=C(OCCN1CCCC1)C(O)(c1ccccc1)c1ccccc1,inactive: 0.598%
16,CC(C)Oc1ccc(C(=O)NCC2(N(C)C)CCCCC2)cc1,inactive: -18.1%
17,C=C(C)C#CC(O)(C(=O)OC1CCN(C)CC1)c1ccccc1 (stereo not drawn),inactive: -3.48%
18,COc1ccc(Br)c(C(=O)NCC2(N3CCCCC3)CCCCC2)c1,inactive: 8.45%
19,COc1cc(C(=O)NCC2(N(C)C)CCCCC2)c([N+](=O)[O-])cc1OC,inactive: 3.93%
20,CN(C)C1(CNC(=O)c2ccc(Br)cc2)CCCCC1,inactive: 13.1%
21,O=C(NCC1(N2CCCCC2)CCCCC1)c1cccc(Cl)c1,inactive: 13.6%
22,COc1ccc(Cl)cc1C(=O)NCC1(N(C)C)CCCCC1,inactive: -3.46%
23,COc1cccc(C(=O)NCC2(N3CCCCC3)CCCCC2)c1,inactive: -3.58%
